# Tested on: Male mongolian gerbils
# Assay: Global brain ischemia in gerbils (CA1 pyramidal neurons)
# Type: in vivo
# Conditions: positive control, 40 mg/kg; fraction of hippocampi protected from ischemia
compound,measurement,value
"CCCC(C)C1(CC)C(=O)NC(=O)NC1=O (stereo not shown) [Pentobarbitone, sodium pentobarbital, reference compound]",PERCENT PROTECTION,87.5%

# From patent EP0738149B1, “1-AMINOINDAN DERIVATIVES AND COMPOSITIONS THEREOF” (priority 1994, dated 1995)
